Reference: US20240360179A1, “STAPLED PEPTIDES AND METHODS THEREOF” (FOG PHARMACEUTICALS, INC., priority 2021, published 2024)

By UniProt entry, the sequences of proteins in these tests, tags left out.
UniProt P35222, whole entry: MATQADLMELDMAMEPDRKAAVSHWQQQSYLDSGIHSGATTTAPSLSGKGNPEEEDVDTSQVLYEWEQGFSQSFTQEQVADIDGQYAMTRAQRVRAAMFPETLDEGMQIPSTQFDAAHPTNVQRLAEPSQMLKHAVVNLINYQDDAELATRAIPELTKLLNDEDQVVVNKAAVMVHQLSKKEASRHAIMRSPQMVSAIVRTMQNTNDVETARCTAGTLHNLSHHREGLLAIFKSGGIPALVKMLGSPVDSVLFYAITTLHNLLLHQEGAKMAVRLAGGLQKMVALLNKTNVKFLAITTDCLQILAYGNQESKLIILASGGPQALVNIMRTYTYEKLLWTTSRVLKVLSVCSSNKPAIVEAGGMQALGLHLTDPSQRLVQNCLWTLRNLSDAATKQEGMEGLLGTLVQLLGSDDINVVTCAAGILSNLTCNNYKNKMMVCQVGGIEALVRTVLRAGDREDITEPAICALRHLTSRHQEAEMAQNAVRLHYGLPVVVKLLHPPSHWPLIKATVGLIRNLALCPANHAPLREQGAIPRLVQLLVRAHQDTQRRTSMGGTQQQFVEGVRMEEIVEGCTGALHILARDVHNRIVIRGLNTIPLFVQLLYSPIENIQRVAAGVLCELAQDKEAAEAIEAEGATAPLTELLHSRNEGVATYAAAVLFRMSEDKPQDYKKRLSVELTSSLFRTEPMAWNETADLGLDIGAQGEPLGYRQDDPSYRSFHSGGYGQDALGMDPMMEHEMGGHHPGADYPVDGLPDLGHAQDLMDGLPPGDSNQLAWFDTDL

What was measured:
[1] = molecular target: T1, full-length B-Catenin (Uniprot ID P35222) (Homo sapiens, UniProt P35222); experiment: biochemical; assay type: binding; details: beta-Catenin FP IC50 (nM), competition fluorescence polarization
T1 construct: 10 nM full-length B-Catenin (Uniprot ID P35222)

[2] = molecular target: beta-catenin/TCF4 interaction (Homo sapiens, UniProt P35222); experiment: cell-based; parameters: host or cells: HEK293; details: NanoBRET Abs IC50 (uM)

Structure (SMILES) | IC50 [1] | IC50 [2]
CCCC[C@@H]1NC(=O)[C@H](Cc2cccc(C(=O)O)c2)NC(=O)[C@H](CC(=O)O)NC(=O)C2(CCCC=CCCCOC(=O)N3CC[C@@]4(C3)NC(=O)[C@H](CCCCNC(=O)CC[C@@H](C(=O)N[C@@H](C)C(N)=O)NC(=O)[C@H](Cc3csc5ccccc35)NC(=O)[C@H](Cc3ccccc3C(F)(F)F)NC4=O)NC(=O)[C@H](Cc3ccccc3)NC(=O)[C@H](C)NC1=O)CCCC=CC[C@]1(CCCN1C(C)=O)C(=O)N[C@@H](CC(=O)O)C(=O)N[C@@H](CC(C)(C)C)C(=O)N2 (relative stereo) [I-71, Ac-PL3-Asp-Npg-B5-Asp-3COOHF-nLeu-Ala-Phe-Lys*3-PyrS2-2F3MeF-BztA-GlnR*3-Ala-NH2] | < 50 nM | 1.5 to 3 µM
CC(=O)N1CCC[C@]12CC=CCCCC1(CCCC=CCCCOC(=O)N3CC[C@@]4(C3)NC(=O)[C@H](CCCCNC(=O)CC[C@@H](C(=O)N[C@@H](C)C(N)=O)NC(=O)[C@H](Cc3csc5ccccc35)NC(=O)[C@H](Cc3ccccc3C(F)(F)F)NC4=O)NC(=O)[C@H](Cc3ccccc3)NC(=O)[C@H](C)NC(=O)[C@H]([C@@H](C)O)NC(=O)[C@H](Cc3cccc(C(=O)O)c3)NC(=O)[C@H](CC(=O)O)NC1=O)NC(=O)[C@H](CC(C)(C)C)NC(=O)[C@H](CC(=O)O)NC2=O (relative stereo) [I-73, Ac-PL3-Asp-Npg-B5-Asp-3COOHF-Thr-Ala-Phe-Lys*3-PyrS2-2F3MeF-BztA-GlnR*3-Ala-NH2] | < 50 nM | 1.5 to 3 µM
CC(=O)N1CCC[C@]12CCCCCCC1(CCCCCCCCOC(=O)N3CC[C@@]4(C3)NC(=O)[C@H](CCCCNC(=O)CC[C@@H](C(=O)N[C@@H](C)C(N)=O)NC(=O)[C@H](Cc3csc5ccccc35)NC(=O)[C@H](Cc3ccsc3)NC4=O)NC(=O)[C@H](Cc3ccccc3)NC(=O)[C@H](C)NC(=O)[C@H](C)NC(=O)[C@H](Cc3cccc(C(=O)O)c3)NC(=O)[C@H](CC(=O)O)NC1=O)NC(=O)[C@H](CC(C)(C)C)NC(=O)[C@H](CC(=O)O)NC2=O (relative stereo) [I-76, Ac-PL3-Asp-Npg-B5-Asp-3COOHF-Ala-Ala-Phe-Lys*3-PyrS2-3Thi-BztA-GlnR*3-Ala-NH2] | < 50 nM | 3 to 10 µM
CC(=O)N1CCC[C@]12CCCCCCC1(CCCCCCCCOC(=O)N3CC[C@@]4(C3)NC(=O)[C@H](CCCCNC(=O)CC[C@@H](C(=O)N[C@@H](C)C(N)=O)NC(=O)[C@H](Cc3csc5ccccc35)NC(=O)[C@H](Cc3ccccc3C(F)(F)F)NC4=O)NC(=O)[C@H](Cc3ccccc3)NC(=O)[C@H](C)NC(=O)[C@H](C)NC(=O)[C@H](Cc3cccc(C(=O)O)c3)NC(=O)[C@H](CC(=O)O)NC1=O)NC(=O)[C@H](CC(C)(C)C)NC(=O)[C@H](CC(=O)O)NC2=O (relative stereo) [I-77, Ac-PL3-Asp-Npg-B5-Asp-3COOHF-Ala-Ala-Phe-Lys*3-PyrS2-2F3MeF-BztA-GlnR*3-Ala-NH2] | < 50 nM | > 10 µM
CC(=O)N1CCC[C@]12CC=CCCCC1(CCCC=CCCCOC(=O)N3CC[C@@]4(C3)NC(=O)[C@H](CCCCNC(=O)CC[C@@H](C(=O)N[C@@H](C)C(N)=O)NC(=O)[C@H](Cc3csc5ccccc35)NC(=O)[C@H](Cc3ccsc3)NC4=O)NC(=O)[C@H](Cc3ccccc3)NC(=O)[C@H](C)NC(=O)[C@H](C)NC(=O)[C@H](Cc3cccc(C(=O)O)c3)NC(=O)[C@H](CC(=O)O)NC1=O)NC(=O)[C@H](CC(C)(C)C)NC(=O)[C@H](CCO)NC2=O (relative stereo) [I-81, Ac-PL3-Hse-Npg-B5-Asp-3COOHF-Ala-Ala-Phe-Lys*3-PyrS2-3Thi-BztA-GlnR*3-Ala-NH2] | 50 to 200 nM | 3 to 10 µM
CC(=O)N1CCC[C@]12CC=CCCCC1(CCCC=CCCCOC(=O)N3CC[C@@]4(C3)NC(=O)[C@H](CCCCNC(=O)CC[C@@H](C(=O)N[C@@H](C)C(N)=O)NC(=O)[C@H](Cc3csc5ccccc35)NC(=O)[C@H](Cc3ccsc3)NC4=O)NC(=O)[C@H](Cc3ccccc3)NC(=O)[C@H](C)NC(=O)[C@H](C)NC(=O)[C@H](Cc3cccc(C(=O)O)c3)NC(=O)[C@H](CCO)NC1=O)NC(=O)[C@H](CC(C)(C)C)NC(=O)[C@H](CC(=O)O)NC2=O (relative stereo) [I-83, Ac-PL3-Asp-Npg-B5-Hse-3COOHF-Ala-Ala-Phe-Lys*3-PyrS2-3Thi-BztA-GlnR*3-Ala-NH2] | 200 to 750 nM | > 10 µM

Next, values leading:

IC50 [1] | IC50 [2] | Structure (SMILES)
< 50 nM | < 1.5 µM | CCCC[C@@H]1NC(=O)[C@H](Cc2cccc(C(=O)O)c2)NC(=O)[C@H](CC(=O)O)NC(=O)C2(CCCC=CCCCOC(=O)N3CC[C@@]4(C3)NC(=O)[C@H](CCCCNC(=O)CC[C@@H](C(=O)N[C@@H](C)C(N)=O)NC(=O)[C@H](Cc3csc5ccccc35)NC(=O)[C@H](Cc3ccsc3)NC4=O)NC(=O)[C@H](Cc3ccccc3)NC(=O)[C@H](C)NC1=O)CCCC=CC[C@]1(CCCN1C(C)=O)C(=O)N[C@@H](CC(=O)O)C(=O)N[C@@H](CC(C)(C)C)C(=O)N2 (relative stereo) [I-70, Ac-PL3-Asp-Npg-B5-Asp-3COOHF-nLeu-Ala-Phe-Lys*3-PyrS2-3Thi-BztA-GlnR*3-Ala-NH2]
< 50 nM | 1.5 to 3 µM | CC(=O)N1CCC[C@]12CC=CCCCC1(CCCC=CCCCOC(=O)N3CC[C@@]4(C3)NC(=O)[C@H](CCCCNC(=O)CC[C@@H](C(=O)N[C@@H](C)C(N)=O)NC(=O)[C@H](Cc3csc5ccccc35)NC(=O)[C@H](Cc3ccsc3)NC4=O)NC(=O)[C@H](Cc3ccccc3)NC(=O)[C@H](C)NC(=O)[C@H]([C@@H](C)O)NC(=O)[C@H](Cc3cccc(C(=O)O)c3)NC(=O)[C@H](CC(=O)O)NC1=O)NC(=O)[C@H](CC(C)(C)C)NC(=O)[C@H](CC(=O)O)NC2=O (relative stereo) [I-72, Ac-PL3-Asp-Npg-B5-Asp-3COOHF-Thr-Ala-Phe-Lys*3-PyrS2-3Thi-BztA-GlnR*3-Ala-NH2]
< 50 nM | 3 to 10 µM | CC(=O)N1CCC[C@]12CC=CCCCC1(CCCC=CCCCOC(=O)N3CC[C@@]4(C3)NC(=O)[C@H](CCCCNC(=O)CC[C@@H](C(=O)N[C@@H](C)C(N)=O)NC(=O)[C@H](Cc3csc5ccccc35)NC(=O)[C@H](Cc3ccsc3)NC4=O)NC(=O)[C@H](Cc3ccccc3)NC(=O)[C@H](C)NC(=O)[C@H](C)NC(=O)[C@H](Cc3cccc(C(=O)O)c3)NC(=O)[C@H](CC(=O)O)NC1=O)NC(=O)[C@H](CC(C)(C)C)NC(=O)[C@H](CC(N)=O)NC2=O (relative stereo) [I-80, Ac-PL3-Asn-Npg-B5-Asp-3COOHF-Ala-Ala-Phe-Lys*3-PyrS2-3Thi-BztA-GlnR*3-Ala-NH2]
< 50 nM | 3 to 10 µM | CC(=O)N1CCC[C@]12CC=CCCCC1(CCCC=CCCCOC(=O)N3CC[C@@]4(C3)NC(=O)[C@H](CCCCNC(=O)CC[C@@H](C(=O)N[C@@H](C)C(N)=O)NC(=O)[C@H](Cc3csc5ccccc35)NC(=O)[C@H](Cc3ccsc3)NC4=O)NC(=O)[C@H](Cc3ccccc3)NC(=O)[C@H](C)NC(=O)[C@H](C)NC(=O)[C@H](Cc3cccc(C(=O)O)c3)NC(=O)[C@H](CC(N)=O)NC1=O)NC(=O)[C@H](CC(C)(C)C)NC(=O)[C@H](CC(=O)O)NC2=O (relative stereo) [I-82, Ac-PL3-Asp-Npg-B5-Asn-3COOHF-Ala-Ala-Phe-Lys*3-PyrS2-3Thi-BztA-GlnR*3-Ala-NH2]
< 50 nM | 3 to 10 µM | CC(=O)N1CCC[C@]12CC=CCCCC1(CCCC=CCCCOC(=O)N3CC[C@@]4(C3)NC(=O)[C@H](CCCCNC(=O)CC[C@@H](C(=O)N[C@@H](C)C(N)=O)NC(=O)[C@H](Cc3csc5ccccc35)NC(=O)[C@H](Cc3ccsc3)NC4=O)NC(=O)[C@H](Cc3ccccc3)NC(=O)[C@H](C)NC(=O)[C@H](CO)NC(=O)[C@H](Cc3cccc(C(=O)O)c3)NC(=O)[C@H](CC(=O)O)NC1=O)NC(=O)[C@H](CC(C)(C)C)NC(=O)[C@H](CC(N)=O)NC2=O (relative stereo) [I-84, Ac-PL3-Asn-Npg-B5-Asp-3COOHF-Ser-Ala-Phe-Lys*3-PyrS2-3Thi-BztA-GlnR*3-Ala-NH2]
50 to 200 nM | > 10 µM | CC(=O)N1CCC[C@]12CC=CCCCC1(CCCC=CCCCOC(=O)N3CC[C@@]4(C3)NC(=O)[C@H](CCCCNC(=O)CC[C@@H](C(=O)N[C@@H](C)C(N)=O)NC(=O)[C@H](Cc3csc5ccccc35)NC(=O)[C@H](Cc3ccsc3)NC4=O)NC(=O)[C@H](Cc3ccccc3)NC(=O)[C@H](C)NC(=O)[C@H](CO)NC(=O)[C@H](Cc3cccc(C(=O)O)c3)NC(=O)[C@H](CC(=O)O)NC1=O)NC(=O)[C@H](CC(C)(C)C)NC(=O)[C@H](CCO)NC2=O (relative stereo) [I-85, Ac-PL3-Hse-Npg-B5-Asp-3COOHF-Ser-Ala-Phe-Lys*3-PyrS2-3Thi-BztA-GlnR*3-Ala-NH2]
50 to 200 nM | > 10 µM | CC(=O)N1CCC[C@]12CC=CCCCC1(CCCC=CCCCOC(=O)N3CC[C@@]4(C3)NC(=O)[C@H](CCCCNC(=O)CC[C@@H](C(=O)N[C@@H](C)C(N)=O)NC(=O)[C@H](Cc3csc5ccccc35)NC(=O)[C@H](Cc3ccsc3)NC4=O)NC(=O)[C@H](Cc3ccccc3)NC(=O)[C@H](C)NC(=O)[C@H](CO)NC(=O)[C@H](Cc3cccc(C(=O)O)c3)NC(=O)[C@H](CC(N)=O)NC1=O)NC(=O)[C@H](CC(C)(C)C)NC(=O)[C@H](CC(=O)O)NC2=O (relative stereo) [I-86, Ac-PL3-Asp-Npg-B5-Asn-3COOHF-Ser-Ala-Phe-Lys*3-PyrS2-3Thi-BztA-GlnR*3-Ala-NH2]
< 50 nM | > 10 µM | CC(=O)N1CCC[C@]12CC=CCCCC1(CCCC=CCCCOC(=O)N3CC[C@@]4(C3)NC(=O)[C@H](CCCCNC(=O)CC[C@@H](C(=O)N[C@@H](C)C(N)=O)NC(=O)[C@H](Cc3csc5ccccc35)NC(=O)[C@H](Cc3ccsc3)NC4=O)NC(=O)[C@H](Cc3ccccc3)NC(=O)[C@H](C)NC(=O)[C@H](CCC(N)=O)NC(=O)[C@H](Cc3cccc(C(=O)O)c3)NC(=O)[C@H](CC(=O)O)NC1=O)NC(=O)[C@H](CC(C)(C)C)NC(=O)[C@H](CC(N)=O)NC2=O (relative stereo) [I-88, Ac-PL3-Asn-Npg-B5-Asp-3COOHF-Gln-Ala-Phe-Lys*3-PyrS2-3Thi-BztA-GlnR*3-Ala-NH2]
